Test results published in PMC4266533, “Kinetics of the early events of GPCR signalling” (Febs Letters, 2014).

Molecular target: T1, FLAG-NTS1 (neurotensin receptor type 1) reconstituted into PC:PG nanodiscs, neurotensin-bound (UniProt P20789)
T1 construct: Neurotensin (NT), 13 amino acid peptide, agonist kept in excess (5 uM) with the receptor; The receptor stood in ~10 nm lipid nanodiscs with the belt protein MSP1D1 (Addgene plasmid 20061, made in E. coli BL21(DE3)); MSP1D1 is not written as a chain; Primarily one receptor per disc (50:1 MSP1D1:FLAG-NTS1); also called FLAG-NTS1-PC:PG nanodiscs; NTS1-nanodiscs
Assay: SPR; Gα amine-coupled to a CM5 chip (Biacore T100/T200); NT-bound (5 uM NT) anti-FLAG-enriched FLAG-NTS1-PC:PG nanodiscs as analyte, serially diluted from 660 nM or 400 nM; single cycle kinetics at 30-50 ul/min; empty nanodiscs as reference, double-referenced; 50 mM Tris-HCl pH 7.4, 100 mM NaCl, 5 mM MgCl2; heterogeneous ligand binding global fit
Details: both partners purified

B1: His6-Gαi1 (alpha subunit of the inhibitory G protein Gi1) (natural protein, UniProt P63096 1-354, looked up)
chain: MGCTLSAEDKAAVERSKMIDRNLREDGEKAAREVKLLLLGAGESGKSTIVKQMKIIHEAGYSEEECKQYKAVVYSNTIQSIIAIIRAMGRLKIDFGDSARADDARQLFVLAGAAEEGFMTAELAGVIKRLWKDSGVQACFNRSREYQLNDSAAYYLNDLDRIAQPNYIPTQQDVLRTRVKTTGIVETHFTFKDLHFKMFDVGGQRSERKKWIHCFEGVTAIIFCVALSDYDLVLAEDEEMNRMHESMKLFDSICNNKWFTDTSIILFLNKKDLFEEKIKKSPLTICYPEYAGSNTYEEAAAYIQCQFEDLNKRKDTKEIYTHFTCATDTKNVQFVFDAVTDVIIKNNLKDCGLF
notes: Alpha subunit of Gi1; construct donated by Renaud Wagner (University of Strasbourg); also called His6-Gi1; His-Gαi1
  Kd: 9 nM
